Assay results reported in paper PMC10407959 (Journal of medicinal chemistry, 2023).
pIC50: −log10 of the molar value. Several values for one entry are separate records, joined by “and”; a condition that tells them apart may be missing. Equal values may be shown once.

Key:
mP2Y14R = biological target: T1, mP2Y14R (Mus musculus, UniProt Q9ESG6); experiment: whole-cell fluorescent binding assay at mP2Y14R expressed in HEK-293 cells; details: mP2Y14R vs hP2Y14R
T1 sequence (Q9ESG6 1-338): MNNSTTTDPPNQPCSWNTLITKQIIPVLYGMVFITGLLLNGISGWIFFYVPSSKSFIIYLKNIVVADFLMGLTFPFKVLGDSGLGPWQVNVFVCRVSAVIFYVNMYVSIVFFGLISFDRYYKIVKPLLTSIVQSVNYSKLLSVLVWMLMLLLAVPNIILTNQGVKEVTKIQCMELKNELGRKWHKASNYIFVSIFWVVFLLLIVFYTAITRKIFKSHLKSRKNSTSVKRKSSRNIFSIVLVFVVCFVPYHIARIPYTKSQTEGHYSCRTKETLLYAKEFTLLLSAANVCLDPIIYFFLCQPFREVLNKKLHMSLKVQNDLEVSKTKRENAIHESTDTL

[1] = tested on: hepG2 (human hepatoma) cell; details: read-out: hepG2 (human hepatoma) cell toxicity, IC50; ref Wen et al. 5; cited from earlier work

O=C(O)c1cc(-c2ccc([C@H]3C[C@H]4C[C@@H]3CN4)cc2)c2ccc(-c3ccc(C(F)(F)F)cc3)cc2c1 [2b, 4-(4-((1S,4S,5S)-2-Azabicyclo[2.2.1]heptan-5-yl)phenyl)-7-(4-(trifluoromethyl)phenyl)-2-naphthoic Acid]
IC50 ratio (mouse/human) (mP2Y14R): 11 and 10.9 | pIC50 [1]: 4.96
